KinaseGlo FLuc: Kinase-Glo luciferase inhibition (counter-screen); actives 0.28% (n = 200,000); Kinase-Glo luciferase, ATP luminescence, 8 min; Q27757; Potency, µM (titrated, usually from 38.3 µM), without a hit: at the highest dose activity change, negative = inhibition, most hits filed as inhibitors; also: potency is read from the fitted curve at half-maximal effect; % is scaled to controls: 0 for no effect and ±100 for the full control effect; nearly all actives have a fitted effect of over 60% in size
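Light output from Kinase-Glo luciferase with luciferin and 10 uM ATP in 50 mM imidazole pH 7.2, KCl, MgCl2, Tween 20, BSA; compound pin-delivered, 8-min ambient incubation, then luminescence read.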
RXFP1 antagonist: RXFP1 (human) relaxin receptor antagonism | Q9HBX9 | HEK293-RXFP1, relaxin-stimulated cAMP HTRF, 30 min; hits give low values | activity change, negative = inhibition, % at 57.5 µM | actives 0.59% (n = 350,000) | AID 1259400;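 active = activity change of -60% or lower, but not beyond a set lower limit; inconclusive = change between -60% and -40%, or beyond the set limit; inactive = change above -40%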; also: % is scaled to controls: 0 for no effect and ±100 for the full control effect
miR-21 reporter: miR-21 reporter, rising signal | 340,000 tested, under 10 active | AID 2288 | HeLa miR-21 FLuc reporter, luciferase, 48 h | Potency, µM (titrated, usually from 38.3 µM), for inactives: at the highest dose reporter change, positive = more light; active = well fitted rising curve with a large enough effect; inconclusive = small, poorly fitted or top-dose-only effect; inactive = no such curve, though single readings can be large or run the other way;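 further: % of control where 0% means no effect; miR-21 action dims this reporter so a rising signal means less miR-21 action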
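HeLa miR-21-FLuc reporter line, endogenous miR-21; 2000 cells/well in DMEM/10% FBS; compound titration up to ~40uM final, 48 h, 37 degree Celsius; luciferase detection reagent, 15 min lysis, CCD luminescence.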
RXFP1 ag: agonists of human relaxin receptor RXFP1; Q9HBX9; HEK293T-RXFP1 cAMP TR-FRET, 30 min; response scale: percent of porcine relaxin response, buffer zero; Potency, µM (top dose mostly 57.5 µM), inactives show top-dose activation, hits mostly activators; actives 0.3% (n = 370,000); also: potency is read from the fitted curve at half-maximal effect; % is scaled to controls: 0 for no effect and ±100 for the full control effect; nearly all actives have a fitted effect of over 60% in size
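HEK293T cells stably expressing RXFP1 were pretreated with the PDE4 inhibitor Ro 20174, exposed to compounds for 30 min at 37C, lysed, and cAMP was read by TR-FRET. Data normalized to buffer (basal) and 29 nM porcine relaxin (100%).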
gsp antagonist: gsp mutant antagonism; actives 0.4% (n = 340,000); Potency, µM (highest dose often 76.9 µM), for inactives: at the highest dose activity change, negative = inhibition, most hits filed as inhibitors; gsp-mutant cells, cAMP HTRF, 30 min; calls by dose curve; cell line not stated here;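 also: intracellular cAMP measured with PDE inhibitor Ro 20-1724 present during compound exposure; potency is read from the fitted curve at half-maximal effect; % is scaled to controls: 0 for no effect and ±100 for the full control effect; nearly all actives have a fitted effect of over 65% in size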
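HTRF cAMP measurement after 30 min RT detection following 30 min, 37C compound treatment alongside […] (added as 300 uM solution) in G418-selected cells seeded at 2000/well and grown 16–24 h.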
gsp ag: gsp mutant agonism; gsp mutant cells, cAMP HTRF, 30 min; Potency, µM (series often up to 76.9 µM), for inactives: top-dose activation (cAMP increase), most hits filed as activators; actives 0.13% (n = 340,000); AID 624287; active = well fitted activation curve with a large enough effect; inconclusive = small, poorly fitted or top-dose-only effect, or another doubt; inactive = no such curve, though single readings can be large or run the other way; cell line not stated here;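 also: phosphodiesterase inhibitor Ro 20-1724 added with compounds to block cAMP breakdown; potency is read from the fitted curve at half-maximal effect; nearly all actives have a fitted effect of over 60% in size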
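Cells stably selected in G418 were plated at 2000/well, grown 16-24 hr, then given compounds in DMSO with the PDE inhibitor […] (300 uM solution added) for 30 min at 37C; cAMP was read by HTRF.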
The depositor's hits bear a star; ? = inconclusive; nt = no result; ! = repeats disagree; [ ] = another dose, or the depositor's remark. Only some compounds are listed: those with a hit (about 1% of all), similar ones and a draw of the others. Unless noted, calls follow the shape of the dose curve; as a rule, active = well fitted curve in the direction sought with a large enough effect; inconclusive = small, poorly fitted or top-dose-only effect, or another doubt; inactive = no such curve, though single readings can be large; an effect the other way counts as inactive or inconclusive.

Start of the listing, in advance, 2 compounds:
Field names: A = KinaseGlo FLuc; B = RXFP1 antagonist; C = miR-21 reporter; D = RXFP1 ag; E = gsp antagonist; F = gsp ag
> CCN1C(=O)C(=C2C=C(C)N(Cc3ccco3)C(C)=C2)C(=O)N(CC)C1=S
  A: 4.0% | B: 18.7 | C: 0.3% | D: 28.2µM* | E: 21.1% | F: ?

> O=C1NC(=O)C(=Cc2ccc(N3CCN(C(=O)c4ccccc4)CC3)c([N+](=O)[O-])c2)C(=O)N1
  A: nt | B: -74.8* | C: -3.2% | D: -0.6% | E: -14.7% | F: 4.6%[15.4 µM]

Main list, from the start:
Field names: A = KinaseGlo FLuc; B = RXFP1 antagonist; C = miR-21 reporter; D = RXFP1 ag; E = gsp antagonist; F = gsp ag
> CCN1C(=O)C(=C2C=C(C)N(Cc3ccco3)C(C)=C2)C(=O)N(CC)C1=S
  A: 4.0% | B: 18.7 | C: 0.3% | D: 28.2µM* | E: 21.1% | F: ?

> O=C1NC(=O)C(=Cc2ccc(N3CCN(C(=O)c4ccccc4)CC3)c([N+](=O)[O-])c2)C(=O)N1
  A: nt | B: -74.8* | C: -3.2% | D: -0.6% | E: -14.7% | F: 4.6%[15.4 µM]

> O=C1NC(=O)N(c2ccccc2)C(=O)/C1=C/c1ccc(Sc2ccccc2)o1
  A: 0.7% | B: -109.3* | C: -1.8% | D: 4.6% | E: -3.3% | F: ?

> Cc1ccccc1CN1C(=O)C(C)N=C(c2ccccc2)c2ccccc21 (stereo unspecified)
  A: nt | B: -69.8* | C: 12.2% | D: 1.9% | E: nt | F: nt

> Nc1ncnc2c1ncn2[C@@H]1O[C@H](COP(=O)(O)OP(=O)(O)OP(=O)(O)O)[C@H]2OC3(O[C@H]21)C([N+](=O)[O-])=CC(=[N+]([O-])[O-])C=C3[N+](=O)[O-] (stereo partly specified)
  A: 2.82µM* | B: nt | C: nt | D: nt | E: nt | F: nt

> Cc1cc[c]([Sb]2[O]C([C@H](O)[C@H](O)C(=O)O)[C@@H](CO)[O]2)cc1 (stereo partly specified)
  A: -0.5%[7.66 µM] | B: nt | C: nt | D: nt | E: nt | F: nt

> COc1ccc(N2C(=O)/C(=C/c3cccs3)C(=O)NC2=S)cc1
  A: nt | B: 0.7 | C: -3.4% | D: -0.6% | E: -15.6% | F: 18.6%[15.4 µM]

> COc1ccc(N2C(=O)/C(=C/C=C/c3ccccc3[N+](=O)[O-])C(=O)NC2=S)cc1
  A: 1.5% | B: -76.6* | C: 1.3% | D: 0.8% | E: -5.6% | F: -4.5%[15.4 µM]

> O=C(O)CN1CCN(CC(=O)O)CC(=O)[O][Hg][O]C(=O)C1
  A: -20.3%[7.66 µM] | B: nt | C: nt | D: nt | E: nt | F: nt

> CCN(CC)C(=O)[C@@H]1C=C2c3cccc4[nH]cc(c34)C[C@H]2N(C)C1
  A: nt | B: 8.3 | C: nt | D: nt | E: nt | F: nt

> CC[C@@]1(O)C(=O)OCc2c1cc1n(c2=O)Cc2cc3ccccc3nc2-1
  A: 2.9% | B: nt | C: ? | D: ? | E: nt | F: nt

> CC[C@@]1(O)C(=O)OCc2c1cc1n(c2=O)Cc2cc3c(NC(=O)CN)cccc3nc2-1
  A: -4.2%[7.66 µM] | B: 5.8 | C: 13.6% | D: 14.1µM* | E: 10.1% | F: 9.5%[15.4 µM]

> CCN(CC)C(=O)c1ccc(NC(=O)CCn2nc(-c3ccc(C)cc3)c3ccccc3c2=O)cc1
  A: nt | B: -78.8* | C: 23.7% | D: 1.5% | E: nt | F: nt

> O=[N+]([O-])/C=C/c1c(Cl)cccc1Cl
  A: nt | B: -67.3* | C: nt | D: nt | E: 15.4% | F: 7.0%

> CCN(CC)c1ccc(/C=C/[N+](=O)[O-])cc1
  A: -1.0% | B: -23.4 | C: -0.2% | D: 0.3% | E: 15.0% | F: ?

> CCOc1ccc(-c2cc(C)[n+](CCc3ccc(OC)c(OC)c3)c(-c3ccc(OCC)cc3)c2)cc1
  A: nt | B: -84.3* | C: ? | D: 2.0% | E: -14.1% | F: 8.7%[15.4 µM]

> Oc1ccc([C@H](O)C2CCCCN2)cc1O (stereo partly specified)
  A: -2.8%[7.66 µM] | B: nt | C: nt | D: nt | E: nt | F: nt

> Cc1ccc(/C=C2/C(=O)NC(=O)N(CCc3ccc(F)cc3)C2=O)o1
  A: -7.9% | B: -73.1* | C: -4.7% | D: 4.0% | E: 2.8% | F: 1.6%

> O=C1NC(=O)N(CCc2ccc(F)cc2)C(=O)/C1=C/c1ccco1
  A: -5.2% | B: ? | C: 0.3% | D: -0.2% | E: -1.5% | F: -8.5%[15.4 µM]

> CO[C@@H]([CH2][Hg])CN1C(=O)c2ccccc2S1(=O)=O.Cn1c(=O)c2nc[nH]c2n(C)c1=O
  A: 0.8%[7.66 µM] | B: nt | C: nt | D: nt | E: nt | F: nt

> Nc1c(C(=O)OC2CCCCC2)c2nc3ccccc3nc2n1CC1CCCO1 (stereo unspecified)
  A: 1.1% | B: -61.6* | C: -0.2% | D: 2.2% | E: ? | F: -28.6%

> CC(C)OC(=O)c1c(N)n(CC2CCCO2)c2nc3ccccc3nc12 (stereo unspecified)
  A: -1.4% | B: -5.0 | C: 5.8% | D: 3.9% | E: -21.0% | F: -9.8%

> CCC(C)C(C)(COC(N)=O)COC(N)=O (stereo unspecified)
  A: nt | B: 3.2 | C: nt | D: nt | E: nt | F: nt

> CC1(C)CC/C(=C\c2ccc(Cl)cc2)C1(O)Cn1cncn1 (stereo unspecified)
  A: nt | B: -35.4 | C: nt | D: nt | E: nt | F: nt

> CCOC(=O)c1c(NC(NC(=O)CF)C(Cl)(Cl)Cl)sc2c1CCCC2 (stereo unspecified)
  A: 0.1% | B: -61.0* | C: -3.6% | D: 0.5% | E: -19.0% | F: -2.0%[15.4 µM]

> Fc1cc(Br)ccc1CBr
  A: nt | B: 11.8 | C: nt | D: nt | E: nt | F: nt

> O=C1NC(=O)N(Cc2ccco2)C(=O)/C1=C/c1ccc(-c2cccc([N+](=O)[O-])c2)o1
  A: -2.0% | B: -66.9* | C: -6.2% | D: 1.6% | E: -5.8% | F: 2.0%

> CN(C)c1ccc(/C=C2/C(=O)NC(=O)N(Cc3ccco3)C2=O)cc1
  A: -5.9% | B: 5.5 | C: -4.9% | D: -2.4% | E: -33.8% | F: -16.7%

> C=CCN1C(=O)NC(=O)/C(=C\c2ccc(-c3ccccc3[N+](=O)[O-])o2)C1=O
  A: 1.2% | B: -100.7* | C: 23.2% | D: -2.4% | E: -7.9% | F: 0.3%[15.4 µM]

> Cc1cccc(OCCn2cccc2/C=C2/C(=O)NC(=O)N(Cc3ccco3)C2=O)c1
  A: nt | B: -68.2* | C: -18.4% | D: 0.9% | E: ? | F: 16.9%

> CC(Cc1ccccc1)N(C)Cc1ccco1 (stereo unspecified)
  A: nt | B: 7.2 | C: nt | D: nt | E: nt | F: nt

> CC(C)(N)Cc1ccccc1Cl
  A: nt | B: 19.8 | C: nt | D: nt | E: nt | F: nt

> c1ccc(N2CCNCC2)cc1
  A: nt | B: 17.3 | C: nt | D: nt | E: nt | F: nt

> Oc1cc(Cl)ccc1Oc1ccc(Cl)cc1Cl
  A: 6.3%[39.9 µM] | B: -76.9*! | C: nt | D: nt | E: -23.4% | F: nt

> O=c1nc(/C=C/c2ccc(Cl)cc2Cl)cc(C(F)(F)F)[nH]1
  A: nt | B: -74.6* | C: 0.1% | D: 0.4% | E: -5.5% | F: ?

> COc1cc(CC(C)N)c(OC)cc1C (stereo unspecified)
  A: nt | B: -5.7 | C: nt | D: nt | E: nt | F: nt

> CN1C(=O)/C(=C/c2cccn2-c2ccc3ccccc3c2)C(=O)NC1=S
  A: -0.6% | B: -97.0* | C: -6.1% | D: 2.5% | E: 9.1% | F: 0.9%

> CCCCC[CH2][Hg][S]C1=C2N=CNC2NC(N)=N1 (stereo unspecified)
  A: -5.0%[7.66 µM] | B: nt | C: nt | D: nt | E: nt | F: nt

> C[n+]1ccc(-c2ccccc2)c2ccccc21
  A: nt | B: nt | C: nt | D: 0.1% | E: 4.7% | F: nt

> CN(C)c1ccc(/C=C/c2cc[n+](C)c3ccccc23)cc1
  A: 12.6µM* | B: -95.4*! | C: ? | D: -8.4% | E: ? | F: -128.1%

> CN(C)c1ccc(/C=C/C=C/c2sc3ccccc3[n+]2C)cc1
  A: nt | B: ? | C: ? | D: -16.8% | E: 28.2µM* | F: -122.2%

> C[C@]12Cc3cn[nH]c3C[C@@H]1CC[C@@H]1[C@@H]2CC[C@@]2(C)[C@H]1CC[C@]2(C)O
  A: nt | B: -30.5 | C: nt | D: nt | E: nt | F: nt

> O=c1[nH]c(=S)[nH]c(O)c1N=Nc1ccc(S(=O)(=O)N2CCc3ccccc32)cc1
  A: 0.9% | B: -100.1* | C: -12.7% | D: -0.2% | E: -30.8% | F: 1.8%[15.4 µM]

> O=C(c1ccccc1)c1ccc(N=Nc2c(O)[nH]c(=O)[nH]c2=O)cc1
  A: -0.2% | B: 9.2 | C: -7.7% | D: 4.5% | E: -2.3% | F: -8.0%

> O=c1[nH]c(=S)[nH]c(O)c1N=Nc1ccc(SC(F)F)cc1
  A: nt | B: -70.7* | C: -35.5% | D: 12.5% | E: -11.9% | F: 15.5%[15.4 µM]

> CC(C(O)c1ccccc1)N(C)C/C=C/c1ccccc1 (stereo unspecified)
  A: nt | B: -8.7 | C: nt | D: nt | E: nt | F: nt

> Cc1[nH]c(=S)c(C#N)c2c1CCCC2
  A: -2.9% | B: 19.6 | C: -15.9% | D: ? | E: 2.0% | F: 14.1µM*

Bioassay records deposited in PubChem by National Center for Advancing Translational Sciences (NCATS).
